Patent US9499482B2, “Pyrrolone or pyrrolidinone melanin concentrating hormone receptor-1 antagonists” (BRISTOL-MYERS SQUIBB COMPANY, priority 2012, dated 2016)

By UniProt entry, the sequences of proteins in these tests, tags left out.
UniProt Q99705, whole entry E4Q/A5T: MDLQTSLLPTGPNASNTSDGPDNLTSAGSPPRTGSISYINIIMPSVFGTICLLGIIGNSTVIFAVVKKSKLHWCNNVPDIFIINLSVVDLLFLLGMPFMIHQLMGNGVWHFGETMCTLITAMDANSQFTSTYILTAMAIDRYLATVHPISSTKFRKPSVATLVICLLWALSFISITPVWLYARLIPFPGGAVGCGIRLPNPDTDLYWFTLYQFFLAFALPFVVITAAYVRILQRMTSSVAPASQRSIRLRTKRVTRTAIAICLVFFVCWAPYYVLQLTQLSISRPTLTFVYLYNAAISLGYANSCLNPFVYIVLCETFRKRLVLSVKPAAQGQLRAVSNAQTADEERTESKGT

Target: human melanin concentrating hormone receptor (MCHR1), mutated (E4Q, A5T) hMCHR1 (Homo sapiens (Human), UniProt Q99705, A5T/E4Q)
Assay: Radioligand binding assay for assessment of MCHR1 activity ([125I]-MCH competition, HEK-293 membranes)
Settings: membranes from HEK-293 cells expressing mutated (E4Q, A5T) hMCHR1; 0.06-0.1 nM [Phe13,[125I]Tyr19]-MCH
Description: Radioligand Binding Assay for Assessment of MCHR1 Activity
An in vitro binding assay was used to determine the compound Ki value or ability to antagonize binding of a peptide agonist to the human melanin concentrating hormone receptor (MCHR1). Membranes from stably transfected HEK-293 cells expressing a mutated (E4Q, A5T) hMCHR1 receptor were prepared by dounce homogenization and differential centrifugation. […] Filters were dried, 0.05 mL MicroScint 20 was added to each well and radioactivity was subsequently quantified by scintillation counting on a TOPCOUNT® microplate scintillation counter (Packard). Inhibitory constants were determined by nonlinear least squares analysis using a four parameter logistic equation.

| Structure (SMILES) | Ki |
| --- | --- |
| COc1cc(N2CC[C@H](Oc3ccc(C4CC4)cc3)C2=O)ccc1OCCN1CCC(O)CC1 [Example 28] | 2 nM |
| COc1cc(N2CC[C@H](Oc3ccc(C4CC4)cc3)C2=O)ccc1OCCN1CCN(c2ncccn2)CC1 [Example 29] | 6 nM |
| COc1cc(N2CC[C@H](Oc3ccc(C4CC4)cc3)C2=O)ccc1OCCN1CCC(N2CCOCC2)C1 (stereo partly drawn) [Example 30] | 2 nM |
| COc1cc(N2CC[C@H](Oc3ccc(C4CC4)cc3)C2=O)ccc1OCCN1CC[C@@H](OC)C1 [Example 31] | 1.8 nM |
| COc1cc(N2CC[C@H](Oc3ccc(C4CC4)cc3)C2=O)ccc1OCCN1CC[C@H](OC)C1 [Example 32] | 1.4 nM |
| COc1cc(N2CC[C@H](Oc3ccc(C4CC4)cc3)C2=O)ccc1OCCN1CCN(C)CC1 [Example 33] | 4 nM |
| COc1cc(N2CC[C@H](Oc3ccc(C4CC4)cc3)C2=O)ccc1OCCN1CC[C@@H](N)C1 [Example 34] | 4 nM |
| COc1cc(N2CC[C@H](Oc3ccc(C4CC4)cc3)C2=O)ccc1OCCN [Example 35] | 3 nM |
| COc1cc(N2CC[C@H](Oc3ccc(C4CC4)cc3)C2=O)ccc1OCCN1CCNCC1 [Example 36] | 5 nM |
| COc1cc(N2CC[C@H](Oc3ccc(C4CC4)cc3)C2=O)ccc1OCCN1C[C@@H](O)[C@@H](O)C1 [Example 37] | 3 nM |
| COc1cc(N2CC[C@H](Oc3ccc(C4CC4)cc3)C2=O)ccc1OCCN1CCC2(CC1)COC2 [Example 38] | 1.1 nM |
| COc1cc(N2CC[C@H](Oc3ccc(C4CC4)cc3)C2=O)ccc1OCCN1CC(N2CCCC2)C1 [Example 39] | 1.6 nM |
| COc1cc(N2CC[C@H](Oc3ccc(C4CC4)cc3)C2=O)ccc1OCCN1CC(C)(O)C1 [Example 40] | 3 nM |
| CCc1cc(N2CC[C@H](Oc3ccc(C4CC4)cc3)C2=O)ccc1OCCN1CCCC1 [Example 41, S-3-(4-Cyclopropylphenoxy)-1-(3-ethyl-4-(2-(pyrrolidin-1-yl)ethoxy)phenyl)pyrrolidin-2-one] | 1.6 nM |
| CCc1cc(N2CC[C@H](Oc3ccc(C4CC4)cc3)C2=O)ccc1OCCN1CC2(COC2)C1 [Example 45] | 3 nM |
| CCc1cc(N2CC[C@H](Oc3ccc(C4CC4)cc3)C2=O)ccc1OCCN1CCC(F)(F)C1 [Example 46] | 15 nM |
| CCc1cc(N2CC[C@H](Oc3ccc(C4CC4)cc3)C2=O)ccc1OCCN1CCOCC1 [Example 47] | 4 nM |
| CCc1cc(N2CC[C@H](Oc3ccc(C4CC4)cc3)C2=O)ccc1OCCN(C)CCO [Example 48] | 1.2 nM |
| CCc1cc(N2CC[C@H](Oc3ccc(C4CC4)cc3)C2=O)ccc1OCCN1CC[C@H](O)C1 [Example 49] | 1.5 nM |
| CCc1cc(N2CC[C@H](Oc3ccc(C4CC4)cc3)C2=O)ccc1OCCN1CC[C@@H](O)C1 [Example 50] | 1.3 nM |
| CCc1cc(N2CC[C@H](Oc3ccc(C4CC4)cc3)C2=O)ccc1OCCN1CCC[C@@H]1CO [Example 51] | 1 nM |
| CCc1cc(N2CC[C@H](Oc3ccc(C4CC4)cc3)C2=O)ccc1OCCN1CC(O)C1 [Example 53] | 3 nM |
| CCc1cc(N2CC[C@H](Oc3ccc(C4CC4)cc3)C2=O)ccc1OCCN1CCC[C@H]1CO [Example 54] | 1.5 nM |
| CCc1cc(N2CC[C@H](Oc3ccc(C4CC4)cc3)C2=O)ccc1OCCNC1(C)COC1 [Example 55] | 5 nM |
| CCc1cc(N2CC[C@H](Oc3ccc(C4CC4)cc3)C2=O)ccc1OCCN1C[C@@H](O)[C@@H](O)C1 [Example 56] | 3 nM |
| CCc1cc(N2CC[C@H](Oc3ccc(C4CC4)cc3)C2=O)ccc1OCCN1CC[C@@H](OC)C1 [Example 57] | 0.8 nM |
| CCc1cc(N2CC[C@H](Oc3ccc(C4CC4)cc3)C2=O)ccc1OCCNC [Example 59] | 3 nM |

| Structure (SMILES) | Ki |
| --- | --- |
| CCc1cc(N2CC[C@H](Oc3ccc(C4CC4)cc3)C2=O)ccc1OCCN [Example 60] | 4 nM |
| CCc1cc(N2CC[C@H](Oc3ccc(C4CC4)cc3)C2=O)ccc1OCCN1CCC[C@@H]1OC [Example 61] | 1.4 nM |
| CCc1cc(N2CC[C@H](Oc3ccc(C4CC4)cc3)C2=O)ccc1OCCN(C)C [Example 62] | 2 nM |
| Cc1cc(N2CC[C@H](Oc3ccc(C4CC4)cc3)C2=O)ccc1OCCN1CCCC1 [Example 63, S-3-(4-Cyclopropylphenoxy)-1-(3-methyl-4-(2-(pyrrolidin-1-yl)ethoxy)phenyl)pyrrolidin-2-one] | 1.2 nM |
| Cc1cc(N2CC[C@@H](Oc3ccc(C4CC4)cc3)C2=O)ccc1OCCN1CCCC1 [Example 64, R-3-(4-Cyclopropylphenoxy)-1-(3-methyl-4-(2-(pyrrolidin-1-yl)ethoxy)phenyl)pyrrolidin-2-one] | 13 nM |
| COCCNCCOc1ccc(N2CC[C@H](Oc3ccc(C4CC4)cc3)C2=O)cc1C [Example 66] | 1.1 nM |
| CC(=O)N1CCN(CCOc2ccc(N3CC[C@H](Oc4ccc(C5CC5)cc4)C3=O)cc2C)CC1 [Example 67] | 2 nM |
| CC(=O)N[C@@H]1CCN(CCOc2ccc(N3CC[C@H](Oc4ccc(C5CC5)cc4)C3=O)cc2C)C1 [Example 68] | 1.2 nM |
| Cc1cc(N2CC[C@H](Oc3ccc(C4CC4)cc3)C2=O)ccc1OCCN1CC[C@@H](O)C1 [Example 69] | 1.1 nM |
| Cc1cc(N2CC[C@H](Oc3ccc(C4CC4)cc3)C2=O)ccc1OCCN1CC[C@@H](F)C1 [Example 70] | 1 nM |
| Cc1cc(N2CC[C@H](Oc3ccc(C4CC4)cc3)C2=O)ccc1OCCN1CCC(F)(F)C1 [Example 71] | 7 nM |
| Cc1cc(N2CC[C@H](Oc3ccc(C4CC4)cc3)C2=O)ccc1OCCN1CCC[C@H]1CO [Example 72] | 0.8 nM |
| Cc1cc(N2CC[C@H](Oc3ccc(C4CC4)cc3)C2=O)ccc1OCCN1CC2(COC2)C1 [Example 73] | 1.4 nM |
| Cc1cc(N2CC[C@H](Oc3ccc(C4CC4)cc3)C2=O)ccc1OCCN1CC(O)C1 [Example 74] | 5 nM |
| Cc1cc(N2CC[C@H](Oc3ccc(C4CC4)cc3)C2=O)ccc1OCCN1CCOCC1 [Example 75] | 2 nM |
| Cc1cc(N2CC[C@H](Oc3ccc(C4CC4)cc3)C2=O)ccc1OCCN1CCNC(=O)C1 [Example 76] | 5 nM |
| Cc1cc(N2CC[C@H](Oc3ccc(C4CC4)cc3)C2=O)ccc1OCCN(C)CCO [Example 77] | 1.3 nM |
| Cc1cc(N2CC[C@H](Oc3ccc(C4CC4)cc3)C2=O)ccc1OCCN1CCC[C@@H]1CO [Example 78] | 1.4 nM |
| Cc1cc(N2CC[C@H](Oc3ccc(C4CC4)cc3)C2=O)ccc1OCCN1CC[C@H](O)C1 [Example 79] | 1 nM |
| Cc1cc(N2CC[C@H](Oc3ccc(C4CC4)cc3)C2=O)ccc1OCCN1CC[C@H](F)C1 [Example 80] | 1.1 nM |
| COC[C@@H]1CCCN1CCOc1ccc(N2CC[C@H](Oc3ccc(C4CC4)cc3)C2=O)cc1C [Example 81] | 1.2 nM |
| Cc1cc(N2CC[C@H](Oc3ccc(C4CC4)cc3)C2=O)ccc1OCCN1CCC[C@H]1C(N)=O [Example 82] | 2 nM |
| Cc1cc(N2CC[C@H](Oc3ccc(C4CC4)cc3)C2=O)ccc1OCCNCCO [Example 83] | 1.2 nM |
| Cc1cc(N2CC[C@H](Oc3ccc(C4CC4)cc3)C2=O)ccc1OCCNC1(CO)CCCC1 [Example 84] | 0.9 nM |
| Cc1cc(N2CC[C@H](Oc3ccc(C4CC4)cc3)C2=O)ccc1OCCNCC#N [Example 85] | 7 nM |
| CNCCOc1ccc(N2CC[C@H](Oc3ccc(C4CC4)cc3)C2=O)cc1C [Example 86] | 1.1 nM |
| Cc1cc(N2CC[C@H](Oc3ccc(C4CC4)cc3)C2=O)ccc1OCCN(C)C [Example 87] | 1 nM |
